Test results: patent publication US20140221287A1 (AstraZeneca / MedImmune, published 2014)

Biological target: T1, human amylin receptor 3 (AMY3) (human, UniProt P30988 25-474; O60896 24-148)
T1 sequence (looked up) 1: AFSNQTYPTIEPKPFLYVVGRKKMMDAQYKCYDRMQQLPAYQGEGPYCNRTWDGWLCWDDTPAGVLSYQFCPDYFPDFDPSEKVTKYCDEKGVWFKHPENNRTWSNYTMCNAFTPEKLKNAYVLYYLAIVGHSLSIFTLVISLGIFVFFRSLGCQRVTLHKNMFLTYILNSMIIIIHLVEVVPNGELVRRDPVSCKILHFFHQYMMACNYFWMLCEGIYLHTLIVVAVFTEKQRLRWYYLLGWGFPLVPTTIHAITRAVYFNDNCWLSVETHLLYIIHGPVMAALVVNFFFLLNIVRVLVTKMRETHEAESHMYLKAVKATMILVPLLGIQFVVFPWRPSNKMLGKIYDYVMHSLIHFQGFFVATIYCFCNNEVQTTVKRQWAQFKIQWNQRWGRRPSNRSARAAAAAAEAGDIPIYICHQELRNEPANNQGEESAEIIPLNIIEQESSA
T1 sequence (looked up) 2: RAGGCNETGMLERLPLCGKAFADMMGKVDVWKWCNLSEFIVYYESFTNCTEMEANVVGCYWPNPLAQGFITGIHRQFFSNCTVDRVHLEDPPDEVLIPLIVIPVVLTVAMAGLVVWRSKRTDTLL
Test: cell-based or functional assay

## KCNTATCATQRLANFLVRSSNNLGPVLPPTNVGSNTY (C-terminal amide (-NH2), also called Compound 1) [Cmpd 1]
  EC50 (nM), cAMP accumulation (HTRF): 0.005 nM
